# The list shows a part of the results, in another mix than the full data. Activity calls are given as the source filed them.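 Rule for the calls: active = ratio percent of control, averaged over triplicates, above buffer control mean plus 5 SD (cut at about 64% in these data); inactive = the rest.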
# By UniProt entry, the sequences of proteins in these tests, tags left out.
# UniProt O14649, whole entry: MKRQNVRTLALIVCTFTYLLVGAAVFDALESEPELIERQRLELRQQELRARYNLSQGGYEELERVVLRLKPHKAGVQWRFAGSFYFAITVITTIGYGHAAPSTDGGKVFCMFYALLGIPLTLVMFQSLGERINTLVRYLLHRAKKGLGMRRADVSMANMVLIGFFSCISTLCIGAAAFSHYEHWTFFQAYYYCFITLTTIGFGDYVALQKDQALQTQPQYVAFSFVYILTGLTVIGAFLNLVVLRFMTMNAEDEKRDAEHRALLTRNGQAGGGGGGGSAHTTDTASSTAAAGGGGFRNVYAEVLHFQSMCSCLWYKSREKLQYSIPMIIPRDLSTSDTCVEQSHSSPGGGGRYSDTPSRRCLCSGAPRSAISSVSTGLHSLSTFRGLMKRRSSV
# Molecular target: Potassium channel subfamily K member 3 (Homo sapiens) (UniProt O14649)
# Assay: TASK1 potassium channel blockade, triplicate retest – CHO cells, FluxOR thallium flux, confirmation (AID 651638);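 note: ratio is the fluorescence rise from min to max over baseline after thallium stimulus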
# Conditions: CHO-KCNK3 thallium flux, FluxOR fluorescence; at 10 µM; active compounds read high; 0% buffer, 100% carvedilol maximal block
row,Structure (SMILES),ratio percent of control
1,CC(C)(C)OC(=O)N1CCC(N(C(=O)c2ccccc2)c2ccc(Cl)cc2)CC1,active: 101%
2,CC(C)(C)OC(=O)N1CCC(N(C(=O)c2ccccc2)c2ccc(F)cc2)CC1,active: 116%
3,Cc1cc(C)cc(N(C(=O)c2ccccc2)C2CCN(C(=O)OC(C)(C)C)CC2)c1,active: 92.3%
